# Yeast mating assay B: variants of the scFv Ab-14

The target is the same throughout: PDVDLGDISGINAS, from the HR2 region of SARS-CoV-2 spike.

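The variants were designed computationally from a first round of random CDR variants and then made and measured. Their group label is 14H_GPLM_Gen (GPLM: also part of the Gaussian process libraries; Gen: genetic algorithm; a sequence that several methods proposed may carry one label only). The assay is AlphaSeq: two haploid yeast populations carry antibody and antigen on their surface. After mating in shaken culture at 30 °C for 16 h, diploids were selected and their barcode pairs sequenced. The ratio of observed to expected reads was calibrated, replicate by replicate, on BCL2-family standards whose Kd was known from biolayer interferometry. Mating was done six times.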

Parent scFv Ab-14: VH joined to VL by a (GGGGS)3 linker. Changes lie in the heavy chain CDRs alone.
VH: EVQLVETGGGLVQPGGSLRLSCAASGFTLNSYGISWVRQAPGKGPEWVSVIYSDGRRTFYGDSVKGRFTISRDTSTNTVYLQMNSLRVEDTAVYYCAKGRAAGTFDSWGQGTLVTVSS
VL: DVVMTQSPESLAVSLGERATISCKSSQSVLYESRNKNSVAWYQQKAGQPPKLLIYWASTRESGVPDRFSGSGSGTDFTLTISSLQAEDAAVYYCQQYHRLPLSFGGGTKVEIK

Variants are written as CDR1, CDR2 and CDR3 of the heavy chain (limits as in the source). Parent: GFTLNSYGIS, VIYSDGRRTFYGDSVK, GRAAGTFDS. Affinities are written as log10 Kd with Kd in nM; a lower number is a better binder. "n.d." means that the variant was in the library but no mating with the target was seen in that replicate; the authors take this as a sign of poor binding, and no number exists. A sequence measured in both rounds can read differently, since the two assays cover different ranges. As a blank, each scFv also met three strains without target: over all heavy chain designs, 1% of these pairings were detected, typically at 2.08 and seldom below 0.84. Also given: how often the same scFv was detected with the empty control strains, with their mean in brackets. The authors averaged sequences with at least three values out of six and counted those with two or fewer as poor binders.

CDR-H1 | CDR-H2 | CDR-H3 | log10 Kd (nM) by replicate | empty controls
GFTLNSYGIS | VIYSDGRRTFYGDSVK | GKVAGTFDT | 0.92 / 1.13 / 0.63 / 1.26 / 1.46 / 1.88 | 0/18
GFSLNSYGIS | VIYSDGRRTFYADSVK | GREAGTFDS | -0.23 / -0.42 / -0.42 / -0.52 / -0.37 / -0.37 | 1/18 (1.98)
GFSLNSYGIS | VIYSDGRRTFYIDSVK | GNAAGTFDS | 0.20 / -0.45 / -0.09 / 0.02 / 0.05 / 0.42 | 0/18
GFSLNSYGIS | VIYSDGRRTFYADSVK | GKNAGTFDS | 0.24 / 1.11 / 0.52 / 0.66 / 0.54 / 0.23 | 0/18
GFSLNSYGIS | VIYSDGRRTFYGDSVK | GKAAGTFDK | 1.61 / 0.95 / 1.41 / 0.91 / 1.57 / 1.92 | 0/18
GFELNSYGIS | VIYADGRRTFYGDSVK | GRAAGTFDK | 0.44 / 0.04 / -0.17 / 0.06 / -0.04 / 0.49 | 1/18 (1.84)
GFSLNDYGIS | VIYSDGRRTYYGDSVK | GRTAGTFDS | 0.14 / -0.40 / -0.15 / -0.46 / -0.33 / -0.44 | 0/18
GFSLNNYGIS | VIYSDGRRTFYGDSVK | GRTAGTFWS | n.d. / n.d. / n.d. / n.d. / n.d. / n.d. | 1/18 (2.14)
HFTLNSYGIS | VIYADGRRTFYGDSVK | GKAAGTFDS | 0.22 / -0.16 / -0.23 / -0.50 / -0.27 / 0.07 | 0/18
GFSLNSYGIS | VIYSDGRRTFYQDSVK | GNAAGTFDS | 0.37 / 0.06 / 0.23 / 0.30 / -0.10 / 0.47 | 0/18
GFGLNEYGIS | VIYSDGRRTFYSDSVK | GKAAGTFDS | 0.20 / n.d. / n.d. / n.d. / n.d. / n.d. | 0/18
WFSLNEYGIS | VIYSDGRRTFYADSVK | GRTAGTFDS | n.d. / n.d. / n.d. / n.d. / n.d. / -1.12 | 0/18
GFDLNSYGIS | VIYSDGRRTFYGDSVK | GSAAGTFDV | 0.87 / 0.71 / 1.02 / 0.78 / 0.97 / 0.83 | 0/18
GFSLNSYGIS | VIYSDGRRTFYQDSVK | GRSAGTFDS | n.d. / n.d. / n.d. / 0.99 / n.d. / n.d. | 0/18
GFSLNSYGIS | VIYSDGRRTFYGDSVK | GRTAGTFDW | 1.60 / 2.31 / 1.29 / 1.86 / 1.53 / 1.61 | 0/18
GFTLNEYGIS | VIYSDGRRTFYSDSVK | GRTAGTFDS | -0.23 / -0.25 / -0.53 / -0.47 / -0.50 / -0.32 | 0/18
GFTLNSYGIS | VIYSDGRRTFYGDSVK | GEAAGTFDK | 0.87 / n.d. / 1.46 / 0.60 / 0.65 / 2.31 | 0/18
GFSLNEYGIS | VIYSDGRRTFYWDSVK | GRTAGTFDS | n.d. / -0.91 / n.d. / n.d. / n.d. / 1.16 | 0/18
GFELNSYGIS | VIYSDGRRTFYGDSVK | GRNAGTFDS | 0.91 / 0.93 / -0.31 / 0.82 / 0.24 / -0.24 | 0/18
GFSLNSYGIS | VIYSDGRRTFYKDSVK | GQAAGTFDK | 1.52 / 0.86 / 1.21 / 1.23 / 0.66 / 1.37 | 0/18
GFSLNSYGIS | VIYSDGRRTFYGDDVK | GKAAGTFDS | 0.63 / 0.45 / 0.56 / 0.65 / 0.61 / 0.86 | 1/18 (2.35)
GFDLNSYGIS | VIYSDGRRTFYGDSVK | GRTAGTFDQ | 0.06 / -0.19 / -0.11 / -0.34 / -0.21 / -0.05 | 2/18 (2.83)
GFTLNDYGIS | VIYSDGRRTFYHDSVK | GRAAGTFDS | n.d. / n.d. / n.d. / n.d. / 1.32 / -0.74 | 0/18
GFTLNSYGIS | VIYSDGKRTFYGDSVK | GRVAGTFDK | 2.31 / 2.30 / n.d. / 1.74 / 1.70 / 1.76 | 0/18
GFDLNSYGIS | VIYSDGRRTFYGDMVK | GEAAGTFDS | 0.11 / n.d. / -0.53 / 0.26 / 0.61 / 0.17 | 0/18
GFSLNTYGIS | VIYSDGRRTFYADSVK | GNAAGTFDS | -0.40 / -0.03 / 0.27 / -0.16 / -0.44 / -0.06 | 0/18
GFSLNNYGIS | VIYSDGRRTFYGDSVK | GRQAGTFDS | 0.47 / 0.63 / 0.71 / 1.16 / 0.54 / 0.52 | 1/18 (2.27)
GFSLNSYGIS | VIYSDGRRTAYSDSVK | GRTAGTFDS | -0.05 / 0.44 / 0.35 / 0.15 / 0.01 / 0.07 | 1/18 (2.02)
GFSLNTYGIS | VIYSDGRRTFYGDSVK | GRQAGTFDS | n.d. / 0.51 / -0.41 / -0.25 / 0.14 / 0.25 | 0/18
GFSLNSYGIS | VIYSDGRRTFYGDSVK | GRHAGTFDS | 2.40 / 1.35 / 1.79 / 1.80 / 1.11 / 2.56 | 0/18
GFTLNEYGIS | VIYSDGRRTFYGDSVK | GRAAGTFDM | n.d. / n.d. / n.d. / n.d. / n.d. / n.d. | 0/18
GFTLNEYGIS | VIYSDGRRTFYGDSVK | GHAAGTFDL | n.d. / n.d. / 2.35 / n.d. / n.d. / n.d. | 0/18
GFNLNEYGIS | VIYSDGRRTFYGDSVK | GRQAGTFDS | 0.70 / -0.46 / -0.64 / 0.99 / -0.35 / -0.04 | 0/18
HFSLNSYGIS | VIYSDGRRTFYADSVK | GQAAGTFDS | 1.48 / 1.00 / 0.89 / 0.82 / 1.19 / 1.14 | 0/18
GFSLNSYGIS | VIYSDGRRTFYQDSVK | GVAAGTFDS | n.d. / n.d. / n.d. / n.d. / 1.76 / n.d. | 0/18
GFSLNDYGIS | VIYSDGRRTFYADAVK | GRTAGTFDS | -0.20 / -0.52 / -0.23 / -0.85 / -0.19 / -0.45 | 0/18
GFSLNSYGIS | VIYSDGRRTFYADSVK | GAAAGTFDS | 0.59 / 1.13 / 0.83 / 0.55 / 0.48 / 1.07 | 0/18

5 of these entries, quoted again:

CDR-H1	CDR-H2	CDR-H3	log10 Kd (nM) by replicate	empty controls
GFTLNSYGIS	VIYSDGRRTFYGDSVK	GKVAGTFDT	0.92 / 1.13 / 0.63 / 1.26 / 1.46 / 1.88	0/18
GFSLNNYGIS	VIYSDGRRTFYGDSVK	GRTAGTFWS	n.d. / n.d. / n.d. / n.d. / n.d. / n.d.	1/18 (2.14)
GFSLNSYGIS	VIYSDGRRTFYGDSVK	GKAAGTFDK	1.61 / 0.95 / 1.41 / 0.91 / 1.57 / 1.92	0/18
GFSLNSYGIS	VIYSDGRRTFYQDSVK	GNAAGTFDS	0.37 / 0.06 / 0.23 / 0.30 / -0.10 / 0.47	0/18
GFSLNSYGIS	VIYSDGRRTAYSDSVK	GRTAGTFDS	-0.05 / 0.44 / 0.35 / 0.15 / 0.01 / 0.07	1/18 (2.02)

Values reported by Li et al. 2023, doi:10.1038/s41467-023-39022-2 (FLAb copy).